Data from patent publication US20260062422A1 (Halda Therapeutics OpCo, Inc., priority 2022, published 2026).

Assays:
[1] = system: T-Rex 293 cell line SC cells having increased expression of progesterone receptor isoform B protein due to exposure to doxycycline; assay: Cellular growth inhibition, T-Rex 293 SC cells with doxycycline (progesterone receptor isoform B induced), Example 45; conditions: progesterone receptor isoform B induced with 10 ng/mL doxycycline, 72 hours, CellTiter-Glo 2.0, Table 11
Protocol: (§1) The following types of cells were prepared for this experiment: (i) a T-Rex 293 cell line having increased expression of progesterone receptor isoform B protein due to exposure to doxycycline and (ii) a T-Rex 293 cell line lacking increased expression of progesterone receptor isoform B protein. Ability of the test compounds to inhibit proliferation of the foregoing cell types was evaluated according to the procedures set forth below.
(§2) The doxycycline-inducible progesterone receptor isoform B protein expressing cell line was established using the following protocol: T-Rex 293 cells were purchased from Invitrogen (Cat #R71007) and transfected using Lipofectamine 2000 with the wild-type progesterone receptor B protein sequence cloned into the pcDNA4/TO vector. […] Clones were analyzed for expression of progesterone receptor isoform B protein in the presence and absence of 10 ng/mL doxycycline (Sigma Cat #D9891), and a single doxycycline-inducible clone (hereinafter “SC”) was selected for use in downstream assays. […]
(§3) At the end of the treatment duration, cell viability was quantified with CellTiter-Glo 2.0 reagent (Promega Cat #G9243). […] Following incubation, the plates were spun at 3000×g for 30 seconds, then sealed with an optical adhesive cover, and luminescence readings were measured with an EnVision Plate Reader (Perkin Elmer).
(§4) Data was normalized using zero luminescence for baseline. […]

[2] = system: T-Rex 293 cell line SC cells lacking increased expression of progesterone receptor isoform B protein; assay: Cellular growth inhibition, T-Rex 293 SC cells without doxycycline, Example 45; conditions: T-Rex 293 SC cells not exposed to doxycycline, 72 hours treatment, CellTiter-Glo 2.0
Protocol: as §1, §2, §3, §4

Structure (SMILES): CCNC(=O)C[C@@H]1N=C(c2ccc(CC3CCN(c4ncc(C(=O)N[C@H]5C(C)(C)[C@H](Oc6ccc(C#N)c(Cl)c6)C5(C)C)cn4)CC3)cc2)c2c(sc(C)c2C)-n2c(C)nnc21
- GI50 [1]: < 500 nM
- GI50 [2]: 500 to 1500 nM
